Assay: Chlorine dioxide compatibility: ClO2 decrease in 200 ppm ClO2 test samples containing an additive (UV/Vis absorption or titration)
Assay type: physicochemical

Sodium cyclamate [compound 8]
ClO2 decrease @ 8 hrs: 3%
chlorine dioxide concentration versus time behaviour: steep immediate declines in chlorine dioxide concentration, followed by much more gradual declines

Reference: patent US9101562B2, “Additives for chlorine dioxide-containing compositions” (BASF CORPORATION, priority 2010, dated 2015)
